{"source": "patent US20050260730A1", "about": "“CDK2/cyclin A crystals and uses thereof” (published 2005)", "target": "CDK2/cyclin A complex (human, UniProt P24941 1-298; P20248 173-432)", "test": "cell-based or functional assay", "data": [{"binder": "RRLF (C-terminal amide)", "note": "[H-Arg-Arg-Leu-Phe-NH2]", "values": [{"measurement": "CDK2/cyclin A kinase activity IC50", "value": "> 50", "unit": "µM"}]}]}
